## Binding of CDR-mutated scFvs to a peptide of the spike HR2 region

Data: MIT Lincoln Laboratory AlphaSeq set, Engelhart et al. 2022, doi:10.1038/s41597-022-01779-4, as distributed in FLAb.

Binding partner: SARS-CoV-2 spike HR2 peptide, sequence PDVDLGDISGINAS.

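The starting antibody came from a phage panning campaign against this peptide. Variants in AAYL51 differ from the parent at up to three CDR positions; double and triple changes were sampled at random. In AlphaSeq, yeast of one mating type display the scFv and yeast of the other type display the target. After mating in shaken culture at 30 °C for 16 h, diploids were selected and their barcode pairs sequenced. The ratio of observed to expected reads was calibrated, replicate by replicate, on BCL2-family standards whose Kd was known from biolayer interferometry. Mating was done three times.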

The variants keep the light chain, the linker and the frameworks of Ab-91 (scFv order VL, the linker GGGGSGGGGSGGGGS, VH).
VL: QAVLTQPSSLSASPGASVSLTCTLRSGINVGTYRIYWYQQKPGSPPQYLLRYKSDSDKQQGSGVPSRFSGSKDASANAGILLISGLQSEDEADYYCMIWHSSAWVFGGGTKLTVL
VH: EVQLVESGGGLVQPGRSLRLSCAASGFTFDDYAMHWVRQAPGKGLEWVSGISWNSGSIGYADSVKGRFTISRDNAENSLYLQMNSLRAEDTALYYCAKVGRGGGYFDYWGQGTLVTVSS

Positions count from residue 1 of the parent VH; S57G puts G in place of S. Scale: log10 of Kd in nM, estimated from mating counts; low values are strong binders. Averages over replicates are reported, and they cover detected replicates only. An entry "no signal" has no value in the source: the pair was not observed among the diploids in any replicate. This suggests poor binding but is not conclusive. Parent in this assay: reference entry 1.86, copy in this library 0.88. Nonspecific signal, from three strains lacking the peptide, appeared in 21% of pairings of library AAYL51, centred on 4.54 (5% of these signals below 3.26); values are not corrected for it. The control count says in how many pairings with the empty strains this scFv gave a signal.

changes,mean log10 Kd (nM),seen in,empty controls
S57G+G59D+Y108N,no signal,0 of 3,1 of 9
G26K+A33R+Y105K,4.98,1 of 3,2 of 9
T28Y+A61F+V64H,no signal,0 of 3,2 of 9
G26R+D30C,4.16,1 of 3,0 of 9
G26M+H35V+Y60K,no signal,0 of 3,0 of 9
Y32D+G56H+R101T,5.13,2 of 3,1 of 9
S55D+F106G+D107T,no signal,0 of 3,0 of 9
A33T+R101F+Y108R,4.77,2 of 3,4 of 9
G59P+S63E+G102L,5.46,2 of 3,4 of 9
T28P+S52Q+G102K,no signal,0 of 3,4 of 9
F27R+G56P+G59A,no signal,0 of 3,1 of 9
F29D+Y32M+G50L,no signal,0 of 3,0 of 9
G26K+A33D,5.05,3 of 3,7 of 9
F27G+T28Y+W53P,0.06,3 of 3,3 of 9
Y32K+G103M+Y105S,5.02,2 of 3,5 of 9
K65D+G104Q,0.55,3 of 3,3 of 9
D30T+D31F+Y105K,4.54,1 of 3,1 of 9
A33Y+H35Y+N54F,no signal,0 of 3,2 of 9
I51E+N54D+D107S,no signal,0 of 3,1 of 9
G26Q+H35C+Y105H,4.52,1 of 3,2 of 9
T28W+Y60P+A61E,5.12,3 of 3,7 of 9
S52M+G56F,5.16,1 of 3,1 of 9
T28H+G56L+V64S,5.47,1 of 3,1 of 9
W53Q+G100C+D107G,no signal,0 of 3,0 of 9
D30S+V99E+D107L,5.68,2 of 3,0 of 9
G50L+G59W+Y105I,no signal,0 of 3,0 of 9
T28N+N54E+G59Q,2.32,1 of 3,2 of 9
S52C+G56V+G104C,no signal,0 of 3,1 of 9
G50K+S57G+D62Q,no signal,0 of 3,0 of 9
G50K+G102Y+Y108K,4.09,1 of 3,3 of 9
G100W+G103M+G104A,5.13,3 of 3,4 of 9
I58E+K65I,0.58,3 of 3,8 of 9
S63R+K65M+G102Y,no signal,0 of 3,1 of 9
I51N+G100C+R101Q,no signal,0 of 3,0 of 9
G26A+N54H+D107M,4.84,1 of 3,3 of 9
F27N+F29V+I58C,3.52,1 of 3,2 of 9
D30E+I51F+N54H,no signal,0 of 3,2 of 9
D30C+G56A+Y105G,3.71,2 of 3,1 of 9
T28M+G50N+G103F,4.15,2 of 3,1 of 9
N54A+S55D+Y60S,5.18,3 of 3,7 of 9
S55T+A61C+R101E,no signal,0 of 3,0 of 9
S55H+I58E,2.88,1 of 3,1 of 9
I51Y+S57Q+Y105N,4.44,3 of 3,5 of 9
G50W+G100A,no signal,0 of 3,0 of 9
M34N+I51T+S52M,4.50,2 of 3,1 of 9
I51W+Y60W+R101H,no signal,0 of 3,0 of 9
A61P+D107F+Y108V,no signal,0 of 3,2 of 9

The last 7 entries again:

{"changes": "S55T+A61C+R101E", "mean log10 Kd (nM)": "no signal", "seen in": "0 of 3", "empty controls": "0 of 9"}
{"changes": "S55H+I58E", "mean log10 Kd (nM)": "2.88", "seen in": "1 of 3", "empty controls": "1 of 9"}
{"changes": "I51Y+S57Q+Y105N", "mean log10 Kd (nM)": "4.44", "seen in": "3 of 3", "empty controls": "5 of 9"}
{"changes": "G50W+G100A", "mean log10 Kd (nM)": "no signal", "seen in": "0 of 3", "empty controls": "0 of 9"}
{"changes": "M34N+I51T+S52M", "mean log10 Kd (nM)": "4.50", "seen in": "2 of 3", "empty controls": "1 of 9"}
{"changes": "I51W+Y60W+R101H", "mean log10 Kd (nM)": "no signal", "seen in": "0 of 3", "empty controls": "0 of 9"}
{"changes": "A61P+D107F+Y108V", "mean log10 Kd (nM)": "no signal", "seen in": "0 of 3", "empty controls": "2 of 9"}